log2 (Light/Heavy) ratio normalized to average of pull down input controls data for 1 substance are collected here from US20250283871A1, “COMPOSITIONS AND METHODS FOR MODULATING THE INTERACTION BETWEEN SS18-SSX FUSION ONCOPROTEIN AND NUCLEOSOMES” (Dana-Farber Cancer Institute, Inc., priority 2020, published 2025).

Common to all, as to test: MBP-SSX1 78aa pull-down of HEK293T mononucleosomes, targeted quantitative histone MS, replicate 1
Test [1] has as its target HEK-293T mononucleosomes with histone H2A(4to11)K5ac1K9ac1 (mammalian (HEK-293T cells)) (UniProt P0C0S8).
Test [2] has as its target HEK-293T mononucleosomes with histone H2AZ(1to19)K4ac1 (mammalian (HEK-293T cells)) (UniProt P0C0S5).
Test [3] has as its target HEK-293T mononucleosomes with histone H2AZ(1to19)ac0 (mammalian (HEK-293T cells)) (UniProt P0C0S5).
For test [4], the target named is HEK-293T mononucleosomes with histone H3K4ac1 (mammalian (HEK-293T cells)) (UniProt P68431).
For test [5], the target named is HEK-293T mononucleosomes with histone H3K4me0 (mammalian (HEK-293T cells)) (UniProt P68431).
Test [6] has as its target HEK-293T mononucleosomes with histone H3K4me1 (mammalian (HEK-293T cells)) (UniProt P68431).
Test [7] addresses HEK-293T mononucleosomes with histone H3K4me2 (mammalian (HEK-293T cells)) (UniProt P68431).
The target of test [8] is HEK-293T mononucleosomes with histone H3K9me2S10ph1K14ac0 (mammalian (HEK-293T cells)) (UniProt P68431).
For test [9], the target named is HEK-293T mononucleosomes with histone H3K9me2S10ph1K14ac1 (mammalian (HEK-293T cells)) (UniProt P68431).
The target in test [10] is HEK-293T mononucleosomes with histone H3K9me3S10ph1K14ac0 (mammalian (HEK-293T cells)) (UniProt P68431).
The target of test [11] is HEK-293T mononucleosomes with histone H4(20to23)K20me0 (mammalian (HEK-293T cells)) (UniProt P62805).
Test [12] has as its target HEK-293T mononucleosomes with histone H4(20to23)K20me1 (mammalian (HEK-293T cells)) (UniProt P62805).
In test [13] the target is HEK-293T mononucleosomes with histone H4(20to23)K20me2 (mammalian (HEK-293T cells)) (UniProt P62805).
In test [14] the target is HEK-293T mononucleosomes with histone H4(4to17)K12ac1K16ac1me0 (mammalian (HEK-293T cells)) (UniProt P62805).
Test [15] has as its target HEK-293T mononucleosomes with histone H4(4to17)K12ac1me0 (mammalian (HEK-293T cells)) (UniProt P62805).
The target in test [16] is HEK-293T mononucleosomes with histone H4(4to17)K16ac1me0 (mammalian (HEK-293T cells)) (UniProt P62805).
The target of test [17] is HEK-293T mononucleosomes with histone H4(4to17)K5ac1K16ac1me0 (mammalian (HEK-293T cells)) (UniProt P62805).
For test [18], the target named is HEK-293T mononucleosomes with histone H4(4to17)K5ac1K8ac1K12ac1K16ac1me0 (mammalian (HEK-293T cells)) (UniProt P62805).
The target of test [19] is HEK-293T mononucleosomes with histone H4(4to17)K5ac1K8ac1K12ac1me0 (mammalian (HEK-293T cells)) (UniProt P62805).
Test [20] concerns the target HEK-293T mononucleosomes with histone H4(4to17)K5ac1K8ac1K16ac1me0 (mammalian (HEK-293T cells)) (UniProt P62805).
The target in test [21] is HEK-293T mononucleosomes with histone H4(4to17)K5ac1me0 (mammalian (HEK-293T cells)) (UniProt P62805).
The target in test [22] is HEK-293T mononucleosomes with histone H4(4to17)K8ac1K12ac1K16ac1me0 (mammalian (HEK-293T cells)) (UniProt P62805).
Test [23] has as its target HEK-293T mononucleosomes with histone H4(4to17)K8ac1K12ac1me0 (mammalian (HEK-293T cells)) (UniProt P62805).
Test [24] addresses HEK-293T mononucleosomes with histone H4(4to17)ac0me0 (mammalian (HEK-293T cells)) (UniProt P62805).

On to “MBP-SSX1 (78aa) (from UniProt P0AEX9 27-392)”, for which the log2 (Light/Heavy) ratio normalized to average of pull down input controls in test [1] was 0.05 log2; in test [2], -1.16 log2; in test [3], -0.694 log2; in test [4] it was -0.312 log2; in test [5], 0.514 log2; in [6], 0.29 log2. Further, the log2 (Light/Heavy) ratio normalized to average of pull down input controls is -0.102 log2 in [7]; 1.3 log2 in [8]; 1.15 log2 in [9]; 0.221 log2 in [10]; 0.065 log2 in test [11]; 0.211 log2 in [12]. Besides, the log2 (Light/Heavy) ratio normalized to average of pull down input controls in [13] was 0.024 log2; in test [14], -0.204 log2; in test [15] it was -0.156 log2; in [16] it was -0.161 log2; in test [17] it was -0.412 log2; in test [18] it was -0.599 log2. The log2 (Light/Heavy) ratio normalized to average of pull down input controls is -0.34 log2 in [19]; -0.375 log2 in test [20]; -0.291 log2 in [21]; -0.258 log2 in [22]; -0.247 log2 in [23]; 0.203 log2 in [24].
